# PubChem BioAssay AID1918 (Vanderbilt High Throughput Screening Facility, 2009)
# Amino acid sequences for entries named in this document (tags omitted). A change or cut given only in a name is not applied to a line headed by its entry.
# UniProt P48048: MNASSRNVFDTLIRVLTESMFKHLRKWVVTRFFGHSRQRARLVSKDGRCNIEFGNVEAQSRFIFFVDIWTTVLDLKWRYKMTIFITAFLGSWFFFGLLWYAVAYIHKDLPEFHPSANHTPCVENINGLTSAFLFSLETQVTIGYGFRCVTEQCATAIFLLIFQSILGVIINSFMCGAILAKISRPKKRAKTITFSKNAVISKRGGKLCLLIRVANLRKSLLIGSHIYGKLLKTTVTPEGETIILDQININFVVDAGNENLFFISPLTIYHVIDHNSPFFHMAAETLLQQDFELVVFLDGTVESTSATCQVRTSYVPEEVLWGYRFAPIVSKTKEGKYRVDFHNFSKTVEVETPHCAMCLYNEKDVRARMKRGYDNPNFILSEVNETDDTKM
# This is a selection; strong and weak results do not stand in their true shares. Calls of active or inactive are those of the source.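 Rule for the calls: active = signal ratio slope over the read window, or its plate-corrected B-score, at least 3 SD from the plate mean, either direction; inactive = the rest.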
# Target: ATP-sensitive inward rectifier potassium channel 1 (Homo sapiens) (UniProt P48048)
# Assay: Kir1.1 channel activity modulation, library screen – cell-based, thallium flux, MLSMR library, primary screen (AID 1918);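 note: B-score of the F/F0 ratio slope over 7 to 12 s after thallium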
# Details: Tet-inducible ROMK, thallium flux fluorescence; at 10 µM; actives lie on both sides
row,Compound,B-score
1,O=C(NC(Sc1ccncn1)C(Cl)(Cl)Cl)c1ccccc1 (stereo not given),inactive: -0.216
2,Oc1ccccc1CNc1ccccn1,inactive: -1.57
3,Nc1cc(N)c2nonc2c1[N+](=O)[O-],inactive: -1.17
4,Clc1ccc(Cl)c(NC2=NCC(CBr)S2)c1 (stereo not given),inactive: -0.799
5,Cc1ccc(OP(=O)(Nc2nccs2)Oc2ccc(C)cc2)cc1,inactive: -0.859
6,COc1ccccc1OP(=O)(Nc1ccc(C)cn1)Oc1ccccc1OC,inactive: 0.549
7,Cc1ccc(N/C(=N/P(=O)(N2CCOCC2)N2CCOCC2)N2CCOCC2)cc1,inactive: -0.228
8,NC(=O)c1cc([N+](=O)[O-])cc([N+](=O)[O-])c1N,inactive: 0.646
9,Cc1cc(SC(NC(=O)c2ccc(F)cc2)C(Cl)(Cl)Cl)ncn1 (stereo not given),inactive: -0.817
10,O=[N+]([O-])c1ncn(CCn2ncnc2[N+](=O)[O-])n1,inactive: -0.528
11,CC(C)(C)C(=O)NC(Sc1ccncn1)C(Cl)(Cl)Cl (stereo not given),inactive: 0.859
12,CN(C)C(=O)OCCc1n(C)cc[n+]1C,inactive: 0.376
13,CC(C)=N/N=C(\N)N[N+](=O)[O-],inactive: -0.755
14,CCN(/C(=N/P(=O)(N1CCOCC1)N1CCOCC1)N1CCOCC1)c1ccc(OC)cc1,inactive: 0.42
15,C[N+]1=C2C=CC=CC=C2SC12C([N+](=O)[O-])=CC([N+](=O)[O-])=C[C-]2[N+](=O)[O-] (stereo not given),inactive: -0.515
16,O=[N+]([O-])c1cc([N+](=O)[O-])c(CCNc2ccccc2)c([N+](=O)[O-])c1,inactive: -0.53
17,CCc1nc2c(n1)c1c(non1O)c1c2no[n+]1[O-],active: 2.78
18,Cc1ccc(NP(=O)(Oc2ccccc2)Oc2ccccc2)nc1,inactive: 0.482
19,COc1ccc(C2=NCC(CBr)S2)cc1 (stereo not given),inactive: -1.03
20,C(Cc1nn[nH]n1)Cc1nn[nH]n1,inactive: 0.559
21,O=[As](O)(c1ccccc1)c1ccc(O)cc1,inactive: -0.0827
22,O=[N+]([O-])c1ncn(CCn2cnc([N+](=O)[O-])n2)n1,inactive: -0.0245

row,Compound,B-score
1,CC(=O)NC(SC(=S)N(C)C)C(Cl)(Cl)Cl (stereo not given),inactive: -0.00543
2,O=P(Nc1ccccn1)(c1ccc(Br)cc1)c1ccc(Br)cc1,inactive: -0.906
3,CN(C)C(=O)Oc1noc2ccccc12,inactive: 0.718
4,Cc1ccccc1OP(=O)(Nc1ccccn1)Oc1ccccc1C,inactive: -0.556
5,Cc1ccc(OP(=O)(Nc2ccccn2)Oc2ccc(C)cc2)cc1,inactive: 1.08
6,CC(=O)NC(SC(=S)N(CC(C)C)CC(C)C)C(Cl)(Cl)Cl (stereo not given),inactive: 0.701
7,CCOC(=O)NC(Sc1ccccc1)C(Cl)(Cl)Cl (stereo not given),inactive: -0.43
8,Cc1ccc(NP(=O)(Oc2cccc(C)c2)Oc2cccc(C)c2)nc1,inactive: -0.823
9,c1ccc(-c2nn[nH]n2)c(-c2nn[nH]n2)c1,inactive: 0.979
10,O=C(NC1CCS(=O)(=O)C1)NP(=S)(Oc1ccccc1)Oc1ccccc1 (stereo not given),inactive: -1.15
11,CCNC(=S)/N=C(\N)N[N+](=O)[O-],inactive: -0.0599
12,CC(=O)Nc1ccc(Oc2c([N+](=O)[O-])cc([N+](=O)[O-])cc2[N+](=O)[O-])cc1,inactive: 1.46
13,CC(C)(C)C(=O)NC(Sc1ccccc1)C(Cl)(Cl)Cl (stereo not given),inactive: -0.289
14,CCOc1ccc(C2=NCC(CBr)S2)cc1 (stereo not given),inactive: 0.000355
15,O=P1(Nc2nc3ccc(Cl)cc3s2)COc2ccccc2O1 (stereo not given),inactive: 0.213
16,CCOP(=O)(Nc1cccc2ccccc12)OCC,inactive: 0.875
17,COc1cc(C2NCCC3(OCCO3)C2(C)C)cc(OC)c1OC (stereo not given),inactive: -0.094
18,Cc1ccc(NCCc2c([N+](=O)[O-])cc([N+](=O)[O-])cc2[N+](=O)[O-])cc1,inactive: 0.648
19,Cc1cccc(OCC(=O)OC2CN3CCC2CC3)c1 (stereo not given),inactive: 0.328
20,O=[As](O)(O)c1cccnc1,inactive: -0.249
21,COc1cc(C(=O)NCC2(N3CCOCC3)CCCCC2)cc(Cl)c1OC(C)C,inactive: -0.435
22,Nc1ccccc1[As](=O)(O)c1ccccc1,inactive: 0.0232

row,Compound,B-score
1,O=P(Nc1nccs1)(Oc1ccccc1)Oc1ccccc1,inactive: 0.0459
2,Nc1cccc([As](=O)(O)c2ccccc2)c1,inactive: -0.292
3,Cc1ccc(OCC(=O)OC2CN3CCC2CC3)cc1 (stereo not given),inactive: -0.0693
4,O=P1(Nc2ccc(Br)cn2)COc2ccccc2OC1,inactive: -1.39
5,O=P1(Nc2ncccn2)COc2ccccc2OC1,inactive: 1.01
6,CN(C)C1(CNC(=O)c2ccc(S(C)(=O)=O)cc2)CCCCC1,inactive: -0.324
7,CC1CCC(C(C)C)C(OP(=O)(Nc2ccccn2)c2ccccc2)C1 (stereo not given),inactive: -0.876
8,Clc1n[nH]nc1-c1nn[nH][15n]1,inactive: 0.985
9,O=P1(Nc2ccccn2)COc2ccccc2OC1,inactive: 0.562
10,CCC(C)N(CC(C)C)C(=S)SC(NC(C)=O)C(Cl)(Cl)Cl (stereo not given),inactive: 0.272
11,CCOC(=O)c1ccc(NC(=O)C(C)(CCl)SC)cc1 (stereo not given),inactive: 0.5
12,Cc1cc(SC(NC=O)C(Cl)(Cl)Cl)ncn1 (stereo not given),inactive: 0.0247
13,O=P(Nc1ccccn1)(c1cccc2ccccc12)c1cccc2ccccc12,inactive: 0.0382
14,O=[N+]([O-])c1cc([N+](=O)[O-])c(-c2ccn[nH]2)s1,inactive: -1.35
15,CC(C)NC(=O)NP(=O)(Oc1ccccc1)Oc1ccccc1,inactive: -1.01
16,O=[As](O)(c1ccc(O)cc1)c1ccccc1O,inactive: 0.208
17,COc1ccc(N/C(=N/P(=O)(N2CCOCC2)N2CCOCC2)N2CCOCC2)cc1,inactive: -0.0824
18,COc1cc(I)ccc1[As](=O)(O)O,inactive: 0.411
19,COc1ccc2nc(NP(=O)(c3ccccc3)c3ccccc3)sc2c1,inactive: -0.087
20,Cc1c2c(nc3ccccc13)SC(C(Cl)Cl)C2 (stereo not given),inactive: -2.31
21,Cc1cc(=O)[nH]c(N[N+](=O)[O-])n1,inactive: 0.072
